Reference: patent publication US11541029B2, “High penetration compositions and their applications” (Techfields Pharma Co., Ltd., priority 2008, dated 2023)

Settings: male, rat, in vivo

Structure (SMILES): CC(C)Cc1ccc(C(C)C(=O)O)cc1 (stereo not shown) [ibuprofen, 2-(ρ-isobutylphenyl)propionic acid, reference compound]
- ibuprofen in Brain (1 hr): 12.2 ± 5.2 nmol/g
